From patent publication US20110257035A1, “IDENTIFICATION OF SIGNATURE GENES ASSOCIATED WITH HEPATOCELLULAR CARCINOMA” (Bayer Healthcare LLC, priority 2008, published 2011)

Assays:
plasma s-VEGFR-3 = test system: plasma s-VEGFR-3
Description: (§1) Plasma samples were obtained from patients at the time of screening, C3D1, and at the end of treatment visit.
(§2) All six assays were sandwich immunoassays obtained from commercial sources. All assays were performed according to the manufacturers' protocols, as summarized below. All samples were assayed in duplicate and the average value was used for correlative analysis.
Appropriately diluted samples and standards were pipetted into the wells, allowing capture of the target protein by the immobilized antibodies.

plasma s-VEGFR-2 = test system: plasma s-VEGFR-2
Description: as §1, §2
ELISA kits for VEGF (cat #DVE00), s-VEGFR-2 (cat #DVR200), HGF (cat #DHG00), and c-KIT (cat #DSCR00) were obtained from R&D Systems.
A monoclonal capture antibody specific to the target protein was provided pre-coated in microplate wells. Appropriately diluted samples and standards were pipetted into the wells, allowing capture of the target protein by the immobilized antibodies. Unbound sample was washed away, and a horseradish peroxidase-conjugated antibody also specific for the target protein was added to the wells. Wells were washed again, and a substrate solution was added to each well. The colored reaction product was measured spectrophotometrically and was translated to the quantity (pg/mL or ng/mL) of biomarker protein in the sample by use of a simultaneously generated standard curve.

plasma bFGF = assay: Plasma bFGF level, baseline vs C3D1, HCC patients; type: in vivo, human; conditions: sorafenib arm, baseline mean 14.1
[1] = plasma level, in response to sorafenib treatment
[2] = sorafenib arm, C3D1, mean of per-subject absolute change, p vs placebo <0.0001

Compound: CNC(=O)c1cc(Oc2ccc(NC(=O)Nc3ccc(Cl)c(C(F)(F)F)c3)cc2)ccn1 [Sorafenib]
- s-VEGFR-3 Mean change in sorafenib arm (plasma s-VEGFR-3; [1]): −14.1%
- VEGFR-3 Δ from BL (e) (plasma s-VEGFR-3; [2]): -6826.3 pg/mL
- VEGFR-3 Mean (d) (plasma s-VEGFR-3; sorafenib arm, C3D1, baseline mean 44754.1): 37903.8 pg/mL
- s-VEGFR-2 Mean change in sorafenib arm (plasma s-VEGFR-2; [1]): −25.7%
- VEGFR-2 Δ from BL (e) (plasma s-VEGFR-2; [2]): -2295.8 pg/mL
- VEGFR-2 Mean (d) (plasma s-VEGFR-2; sorafenib arm, C3D1, baseline mean 8773.4): 6395.6 pg/mL
- bFGF Mean (d) (plasma bFGF): 16.1 pg/mL
